Measured values reported in ChEMBL document CHEMBL6096727, “Structure-Based Rational Design and Evaluation of BET-Aurora Kinase Dual-Inhibitors for Treatment of Cancers” (J Med Chem, 2025).

Legend:
[1] = target: T1, Aurora kinase A (Homo sapiens) (UniProt O14965); details: dose 111.0 nM
T1 sequence (whole entry): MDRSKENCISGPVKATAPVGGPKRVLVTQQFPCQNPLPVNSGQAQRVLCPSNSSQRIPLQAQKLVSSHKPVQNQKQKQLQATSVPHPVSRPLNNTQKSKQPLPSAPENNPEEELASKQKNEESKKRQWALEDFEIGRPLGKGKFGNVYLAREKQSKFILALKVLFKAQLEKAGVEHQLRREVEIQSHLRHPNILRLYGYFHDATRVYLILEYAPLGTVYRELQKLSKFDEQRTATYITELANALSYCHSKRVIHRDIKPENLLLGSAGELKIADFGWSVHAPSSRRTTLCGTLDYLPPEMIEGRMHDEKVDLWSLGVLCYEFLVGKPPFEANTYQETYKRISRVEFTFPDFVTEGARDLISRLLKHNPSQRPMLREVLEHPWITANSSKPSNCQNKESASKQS

[2] = target: T1, Aurora kinase A (Homo sapiens); details: dose 333.0 nM

| Structure (SMILES) | inhibition [1] [%] | inhibition [2] [%] |
| --- | --- | --- |
| Cc1cc(Nc2ccnc(Nc3ccc4c(c3)N(C(C)C)[C@H](C)C(=O)N4C)n2)n(C(C)C)n1 | 6.1 | 38 |
| Cc1cc(Nc2ccnc(Nc3ccc4c(c3)N(C(C)C)[C@H](C)C(=O)N4C)n2)n(-c2ccccc2)n1 | -4.4 | 9 |
| Cc1cc(Nc2ccnc(Nc3ccc4c(c3)N(C(C)C)[C@H](C)C(=O)N4C)n2)n(C(C)(C)C)n1 | 19 | 7.6 |
| CC(C)N1c2cc(Nc3nccc(-c4ccnn4C(C)C)n3)ccc2N(C)C(=O)[C@H]1C | 5.8 | 34 |
| CC(C)N1c2cc(Nc3nccc(-c4c[nH]nc4-c4ccccc4)n3)ccc2N(C)C(=O)[C@H]1C | 11 | 38 |
| CC(C)N1c2cc(Nc3nccc(-c4cc[nH]n4)n3)ccc2N(C)C(=O)[C@H]1C | 23 | 53 |
| CCn1nccc1-c1ccnc(Nc2ccc3c(c2)N(C(C)C)[C@H](C)C(=O)N3C)n1 | 4.8 | 36 |
| Cc1nn(-c2ccccc2)cc1-c1ccnc(Nc2ccc3c(c2)N(C(C)C)[C@H](C)C(=O)N3C)n1 | 5.3 |  |
| CC(C)N1c2cc(Nc3nccc(-c4cn[nH]c4)n3)ccc2N(C)C(=O)[C@H]1C | 19 | 50 |
| CC(C)N1c2cc(Nc3nccc(Nc4cc(C(C)(C)C)n[nH]4)n3)ccc2N(C)C(=O)[C@H]1C | -7 | 10 |
| CC(C)N1c2cc(Nc3nccc(Nc4cc(-c5ccccc5)nn4C)n3)ccc2N(C)C(=O)[C@H]1C |  | -3.9 |

Other lines, results leading:

| inhibition [1] [%] | inhibition [2] [%] | Structure (SMILES) |
| --- | --- | --- |
| 2.1 | 28 | Cc1cc(Nc2ccnc(Nc3ccc4c(c3)N(C(C)C)[C@H](C)C(=O)N4C)n2)n(C)n1 |
| -4.2 | 18 | CC(C)N1c2cc(Nc3nccc(-c4ccn(C)n4)n3)ccc2N(C)C(=O)[C@H]1C |
| 27 |  | Cc1cnc(Nc2ccc3c(c2)N(C(C)C)[C@H](C)C(=O)N3C)nc1-c1c(C2CC2)nn(C)c1C |
| 9 | 36 | Cc1cnn(C)c1-c1ccnc(Nc2ccc3c(c2)N(C(C)C)[C@H](C)C(=O)N3C)n1 |
| 34 |  | Cc1c(-c2ccnc(Nc3ccc4c(c3)N(C3CCC3)[C@H](C)C(=O)N4C)n2)c(C2CC2)nn1C |
| 1.2 | 29 | CC(C)N1c2cc(Nc3nccc(Nc4cc(C5CC5)nn4C)n3)ccc2N(C)C(=O)[C@H]1C |
| 11 |  | Cc1c(-c2ccnc(Nc3ccc4c(n3)N(C(C)C)[C@H](C)C(=O)N4C)n2)c(C2CC2)nn1C |
| 12 | 46 | CC(C)N1c2cc(Nc3nccc(-c4c[nH]nc4C4CCCCC4)n3)ccc2N(C)C(=O)[C@H]1C |
| 24 |  | Cc1nn(C)c(C2CC2)c1-c1ccnc(Nc2ccc3c(c2)N(C(C)C)[C@H](C)C(=O)N3C)n1 |
| 20 | 4.6 | CC(C)N1c2cc(Nc3nccc(Nc4cc(C(C)(C)C)nn4C)n3)ccc2N(C)C(=O)[C@H]1C |
| 29 |  | Cc1c(-c2ccnc(Nc3ccc4c(c3)N(C3CCCC3)[C@H](C)C(=O)N4C)n2)c(C2CC2)nn1C |
| 22 | 24 | CC(C)N1c2cc(Nc3nccc(-c4ccnn4C)n3)ccc2N(C)C(=O)[C@H]1C |
| 0 | 26 | Cc1cc(-c2ccnc(Nc3ccc4c(c3)N(C(C)C)[C@H](C)C(=O)N4C)n2)n(C)n1 |
